## scFv variants of Ab-14 (heavy chain) against a SARS-CoV-2 spike peptide

Binding partner: SARS-CoV-2 spike HR2 peptide, sequence PDVDLGDISGINAS.

Ab-14 is the parent antibody, in scFv form: VH, then the linker GGGGSGGGGSGGGGS, then VL. The light chain is unchanged in all variants.
VH: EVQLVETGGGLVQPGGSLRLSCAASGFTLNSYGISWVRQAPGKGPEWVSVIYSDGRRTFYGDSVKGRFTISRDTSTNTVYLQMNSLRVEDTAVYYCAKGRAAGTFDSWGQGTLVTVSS
VL: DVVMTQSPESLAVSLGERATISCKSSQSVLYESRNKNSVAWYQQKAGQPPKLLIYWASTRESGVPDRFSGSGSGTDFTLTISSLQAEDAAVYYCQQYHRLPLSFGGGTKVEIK

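Phage display of a naive human antibody library on the peptide gave the parent. AAYL49 was designed without a model: most single CDR substitutions and a random sample of double and triple ones. In AlphaSeq, yeast of one mating type display the scFv and yeast of the other type display the target. The frequency of each diploid, read from paired DNA barcodes, reflects how well the two displayed proteins bind. The ratio of observed to expected reads was calibrated, replicate by replicate, on BCL2-family standards whose Kd was known from biolayer interferometry. Each pool was mated in three replicate cultures.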

Positions count from residue 1 of the parent VH; N30V puts V in place of N. Scale: log10 of Kd in nM, estimated from mating counts; low values are strong binders. Averages over replicates are reported, and they cover detected replicates only. An entry "not detected" has no value in the source: the pair was not observed among the diploids in any replicate. This suggests poor binding but is not conclusive. Empty control strains, which show no peptide, gave a signal in 15% of pairings with library AAYL49; the median was 4.06 and 95% of these signals were weaker than 2.83. No background was subtracted.

changes | mean, log10 nM | replicates with signal
N30V R57D Y60C | not detected | 0/3
T28P D54A T104A | not detected | 0/3
I51L Y60A D62S | not detected | 0/3
R57V A102E D106G | not detected | 0/3
T28I G99K F105E | 2.15 | 3/3
G26W T28D S107F | 2.93 | 3/3
I34M R100P | 2.60 | 3/3
L29R R57W A102Q | not detected | 0/3
G26N I34M G61K | not detected | 0/3
S31L Y60K A102L | not detected | 0/3
R57Q G61M R100K | not detected | 0/3
L29F S107A | 2.67 | 3/3
Y52N G55L A101G | not detected | 0/3
V50H G103T T104A | 4.23 | 2/3
G26L A102T | not detected | 0/3
I51R G55R R100A | not detected | 0/3
L29D G99A R100S | 3.78 | 1/3
G61W S107R | 3.29 | 1/3
R56E T104C | 1.83 | 3/3
N30F G99T A102S | 4.31 | 1/3
Y32D R56C V64Y | not detected | 0/3
Y32V K65G R100C | 6.28 | 1/3
G55M S63R T104A | 4.77 | 1/3
L29V S35C R57V | not detected | 0/3
V64I G103D D106E | 2.08 | 3/3
I51R D54H S107K | not detected | 0/3
I51L S63D G99W | 3.95 | 3/3
R56W D62L | 3.38 | 2/3
F59D D62L V64M | not detected | 0/3
V50R D54S V64A | 3.79 | 1/3
S35I I51V D106N | not detected | 0/3
G33Y F105P D106I | 4.98 | 2/3
G55Y D62Y K65D | 3.52 | 1/3
R56L A102N G103V | 0.67 | 3/3
S35E G61W D62Q | not detected | 0/3
G26Y N30M F105I | 4.44 | 1/3
G33L I34P G61R | not detected | 0/3
G33L D54M R57C | 5.07 | 3/3
G33W D54K S107Q | not detected | 0/3
Y52P G61T A102G | 5.07 | 3/3
F27W G99N A101K | 5.21 | 3/3
I51S G99T T104A | 4.58 | 1/3
T28C D62S K65Y | 3.10 | 3/3
S31D I34P G61F | 2.89 | 1/3
R56Q T58Q F105K | not detected | 0/3
T28A V64A | 4.91 | 2/3
S31Q S53F K65V | 1.35 | 2/3
G26D G33M D54N | 4.51 | 3/3
R57G F59Y Y60K | 4.81 | 1/3
N30Q I34F G103M | not detected | 0/3
F27T I51L A102P | 4.97 | 1/3
I34K A101S D106A | not detected | 0/3
D54N F59C K65S | not detected | 0/3
D54S V64Y R100Q | not detected | 0/3
N30D R56G D106H | 3.31 | 3/3
L29E R56I R57Q | 3.68 | 1/3

Again, the first 4 entries without any signal:

changes	mean, log10 nM	replicates with signal
N30V R57D Y60C	not detected	0/3
T28P D54A T104A	not detected	0/3
I51L Y60A D62S	not detected	0/3
R57V A102E D106G	not detected	0/3

The measurements come from Engelhart et al. 2022 (doi:10.1038/s41597-022-01779-4) through the FLAb antibody collection.